Assays:
[1] = target: T1, Retinoic acid receptor alpha (Mus musculus, UniProt P11416); assay: (§1) Transcriptional activation in CV-1 cells expressing retinoid A receptor RAR alpha; format: cell-based
[2] = target: T1, Retinoic acid receptor alpha; assay: Inhibition of binding to retinoid A receptor RAR alpha
[3] = target: Retinoic acid receptor gamma (Mus musculus, UniProt P18911); assay: Inhibition of binding to retinoid A receptor RAR gamma
[4] = target: T1, Retinoic acid receptor alpha; assay: as §1; format: cell-based; remark: listed apart in the source
Method in brief: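 CV-1 cells were transiently transfected with a plasmid for the relevant RAR subtype plus a (TREpal)2-tk-CAT reporter. Retinoids were tested over 1–1000 nM. CAT activity was the read-out. EC50 for half-maximal activation was obtained by Probit analysis of the dose–response curve.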

Sequences of proteins named here, by UniProt entry; tags and fusion partners are left off.
UniProt P11416, whole entry: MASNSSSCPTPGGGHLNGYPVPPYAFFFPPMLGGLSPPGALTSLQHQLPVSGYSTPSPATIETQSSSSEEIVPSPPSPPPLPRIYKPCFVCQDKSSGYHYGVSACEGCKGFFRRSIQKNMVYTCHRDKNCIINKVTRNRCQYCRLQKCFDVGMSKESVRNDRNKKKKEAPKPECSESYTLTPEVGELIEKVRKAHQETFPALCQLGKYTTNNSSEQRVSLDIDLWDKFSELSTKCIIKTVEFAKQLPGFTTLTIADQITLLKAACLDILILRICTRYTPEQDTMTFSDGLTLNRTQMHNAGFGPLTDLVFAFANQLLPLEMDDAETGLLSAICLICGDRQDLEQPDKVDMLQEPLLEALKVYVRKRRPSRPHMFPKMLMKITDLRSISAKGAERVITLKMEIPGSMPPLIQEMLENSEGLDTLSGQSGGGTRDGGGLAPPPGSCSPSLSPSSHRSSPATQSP
UniProt P18911, whole entry: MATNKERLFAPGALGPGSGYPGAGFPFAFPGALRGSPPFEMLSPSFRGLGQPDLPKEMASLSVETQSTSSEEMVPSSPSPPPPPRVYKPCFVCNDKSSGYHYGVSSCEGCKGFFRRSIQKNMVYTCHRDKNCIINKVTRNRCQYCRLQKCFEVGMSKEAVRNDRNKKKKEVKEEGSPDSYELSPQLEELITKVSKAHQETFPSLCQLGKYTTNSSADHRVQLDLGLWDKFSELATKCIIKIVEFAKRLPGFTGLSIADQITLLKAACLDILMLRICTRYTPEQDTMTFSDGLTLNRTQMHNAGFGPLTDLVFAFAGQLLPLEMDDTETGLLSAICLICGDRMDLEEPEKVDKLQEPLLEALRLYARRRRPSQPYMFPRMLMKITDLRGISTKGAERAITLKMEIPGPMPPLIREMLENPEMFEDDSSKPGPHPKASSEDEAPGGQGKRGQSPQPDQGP

CCC1=C(C(C)C)/C(=C/C(C)=C\C=C/C(C)=C/C(=O)O)CCC1
EC50 [1]: > 1000 nM
IC50 [2]: > 1000 nM

CC1=C(\C=C/C(C)=C/C=C/C(C)=C/C(=O)O)C(C)(C)CCC1
IC50 [3]: 60 nM
EC50 [4]: 18 nM
IC50 [2]: 31 nM

CC1=C(/C=C/C(C)=C/C=C/C(C)=C/C(=O)O)C(C)(C)CCC1 [TRETINOIN]
EC50 [4]: 22 nM

Source: ChEMBL document CHEMBL1131217, “Conformationally defined retinoic acid analogues. 4. Potential new agents for acute promyelocytic and juvenile myelomonocytic leukemias” (J Med Chem, 1998)
